Results published in PubChem BioAssay AID1663 (Broad Institute, 2009).
The list shows a part of the results, in another mix than the full data. Calls of active or inactive are those of the source.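 How the source made its calls: active means mean replicate score, as percent of positive control, at or above 50; inconclusive means mean below 50 but at least one replicate at or above 50; inactive means mean and every replicate below 50.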

Experiment: inhibitors of platelet dense granule secretion, primary screen, cell-based, MLPCN, human platelets (AID 1663)
Conditions: human platelet-rich plasma, SFLLRN dense granule ATP release, luminescence; hits give high values;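 compounds screened at 7.5 µM in platelet-rich plasma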

Compound	inhibition
CN(C)C1(CNC(=O)c2ccc(S(C)(=O)=O)cc2)CCCCC1	inactive: 0.221%
O=P1(Nc2ncccn2)COc2ccccc2OC1	inactive: 4.85%
O=P1(Nc2ccc(Br)cn2)COc2ccccc2OC1	inactive: -16.1%
Cc1ccc(OCC(=O)OC2CN3CCC2CC3)cc1 (stereo not given)	inactive: 0.265%
O=[As](O)(c1cccs1)c1cccs1	inactive: -3.86%
Nc1cccc([As](=O)(O)c2ccccc2)c1	inactive: -2.49%
CN(CCCl)Cc1cc(Cl)c(NC2=NCCN2)c(Cl)c1	inactive: -3.79%
CCOP(=O)(Nc1ccc(C)cn1)OCC	inactive: 3.32%
CCOP(=O)(NC(=NC(C)c1ccccc1)NC(C)c1ccccc1)OCC (stereo not given)	inactive: 6.32%
O=P1(Nc2ccccn2)COc2ccccc2OC1	inactive: -1.4%
CCC1=CC2Cc3nc4ccc(Cl)cc4c(N)c3C(C1)C2 (stereo not given)	inactive: 2.48%
CC(C)(C)C(=O)NC(Sc1ncccn1)C(Cl)(Cl)Cl (stereo not given)	inactive: -1.8%
Clc1n[nH]nc1-c1nn[nH][15n]1	inactive: -7.63%
COc1ccccc1CNC(=O)COC(=O)C(O)(c1ccccc1)c1ccccc1	inactive: -4.29%
CC1(CBr)Cn2c(nc3ccccc3c2=O)S1 (stereo not given)	inactive: -1.09%
O=[As](O)(c1ccccc1Br)c1ccccc1Br	inactive: 6.53%
CC(C)/C=N\N=C(\N)N[N+](=O)[O-]	inactive: -8.07%
CN(C(=O)Cc1ccc(Cl)c(Cl)c1)[C@@H]1CCCC[C@H]1N1CCCC1	inactive: 0.87%
COP1(=S)c2c(C)nn(CCC#N)c2N=C(c2ccc(F)cc2)N1C (stereo not given)	inactive: 3.82%
O=C(Nc1ccncc1[N+](=O)[O-])c1ccc([N+](=O)[O-])cc1[N+](=O)[O-]	inactive: 5.53%
CCOC(=O)c1ccc(NC(=O)C(C)(CCl)SC)cc1 (stereo not given)	inactive: 1.72%
O=C(OC1CN2CCC1CC2)c1cccc([N+](=O)[O-])c1 (stereo not given)	inactive: 1.33%
CCC(C)N(CC(C)C)C(=S)SC(NC(C)=O)C(Cl)(Cl)Cl (stereo not given)	inactive: 0.93%

Compound	inhibition
CCOC(=O)Nc1ccc([As](=O)(O)O)c(O)c1	inactive: 6.89%
Cc1cc(SC(NC(=O)c2ccccc2)C(Cl)(Cl)Cl)nc(C(C)C)n1 (stereo not given)	inactive: -0.94%
CCCCOc1ccc(C(=O)NCC2(N3CCCCC3)CCCCC2)cc1OC	inactive: 6.13%
CCOC(=O)Nc1cccc([As](=O)(O)O)c1	inactive: -0.736%
O=[N+]([O-])c1ccc(Nc2ccc(Oc3ccc([N+](=O)[O-])cc3[N+](=O)[O-])cc2)c([N+](=O)[O-])c1	inactive: 0.344%
O=P(Nc1ccccn1)(c1cccc2ccccc12)c1cccc2ccccc12	inactive: -1.59%
Cc1cc(SC(NC=O)C(Cl)(Cl)Cl)ncn1 (stereo not given)	inactive: 2.73%
C[As](=O)(O)c1cccc(C(=O)O)c1	inactive: 6.28%
O=[As](O)(c1ccc(O)cc1)c1ccccc1O	inactive: 5.08%
Cc1ccc2nc3c(c(C)c2c1)CC(C(Cl)Cl)S3 (stereo not given)	inactive: -7.2%
Cc1ccc(OP(=O)(Nc2ccc([N+](=O)[O-])cn2)Oc2ccc(C)cc2)cc1	inactive: -0.747%
CC(C)c1ccc(OP(=O)(Nc2ccccn2)Oc2ccccc2F)cc1 (stereo not given)	inactive: 1.71%
ClCCSc1nnc(-c2cccnc2)o1	inactive: 1.43%
O=[N+]([O-])c1cc([N+](=O)[O-])c(-c2ccn[nH]2)s1	inactive: 3.38%
CCN(CC)C(=S)SC(NC=O)C(Cl)(Cl)Cl (stereo not given)	inactive: 15.2%
CC(C)NC(=O)NP(=O)(Oc1ccccc1)Oc1ccccc1	inactive: 14%
Cc1cc(=O)[nH]c(N[N+](=O)[O-])n1	inactive: 1.62%
O=C(OC1CN2CCC1CC2)C12CC3CC(CC(C3)C1)C2 (stereo not given)	inactive: -1.83%
Cc1c2c(nc3ccccc13)SC(C(Cl)Cl)C2 (stereo not given)	inactive: -1.02%
COc1cc(I)ccc1[As](=O)(O)O	inactive: 3%
COc1ccc2nc(NP(=O)(c3ccccc3)c3ccccc3)sc2c1	inactive: 0.329%
COc1ccc(N/C(=N/P(=O)(N2CCOCC2)N2CCOCC2)N2CCOCC2)cc1	inactive: -1.61%
